Assay: Franz skin diffusion cell permeation (percutaneous absorption) under ambient, natural or pulsed incoherent LED light

Insulin [Compound 19]
% Permeation (percent increase or decrease vs dark baseline, equation 1) (350 + TiO2, 8 cps vs Dark-TiO2): 98.88% | % Permeation (percent increase or decrease vs dark baseline, equation 1) (350 + TiO2, 24 cps vs Dark-TiO2): 75.09% | % Permeation (percent increase or decrease vs dark baseline, equation 1) (350 + TiO2, 80 cps vs Dark-TiO2): 12.81% | Permeation (350 + TiO2, pulse rate 8 cps): 14.22 μg/cm^2/24 hrs | Permeation (350 + TiO2, pulse rate 24 cps): 73.73 μg/cm^2/24 hrs | Permeation (350 + TiO2, pulse rate 80 cps): 44.04 μg/cm^2/24 hrs | Permeation (350 nm LED, pulse rate 8 cps): 20.65 μg/cm^2/24 hrs | Permeation (350 nm LED, pulse rate 24 cps): 12.98 μg/cm^2/24 hrs | Permeation (350 nm LED, pulse rate 80 cps): 73.05 μg/cm^2/24 hrs | % Permeation (percent increase or decrease vs dark baseline, equation 1) (350 nm, 8 cps vs Dark): 114.43% | % Permeation (percent increase or decrease vs dark baseline, equation 1) (350 nm, 24 cps vs Dark): −64.70% | % Permeation (percent increase or decrease vs dark baseline, equation 1) (350 nm, 80 cps vs Dark): 58.01% | % Permeation (percent increase or decrease vs dark baseline, equation 1) (390 + TiO2, 8 cps vs Dark-TiO2): 282.10% | % Permeation (percent increase or decrease vs dark baseline, equation 1) (390 + TiO2, 24 cps vs Dark-TiO2): 85.21% | % Permeation (percent increase or decrease vs dark baseline, equation 1) (390 + TiO2, 80 cps vs Dark-TiO2): 92.44% | Permeation (390 + TiO2, pulse rate 8 cps): 27.32 μg/cm^2/24 hrs | Permeation (390 + TiO2, pulse rate 24 cps): 77.99 μg/cm^2/24 hrs | Permeation (390 + TiO2, pulse rate 80 cps): 75.13 μg/cm^2/24 hrs | Permeation (390 nm LED, pulse rate 8 cps): 22.87 μg/cm^2/24 hrs | Permeation (390 nm LED, pulse rate 24 cps): 84.67 μg/cm^2/24 hrs | Permeation (390 nm LED, pulse rate 80 cps): 36.54 μg/cm^2/24 hrs | % Permeation (percent increase or decrease vs dark baseline, equation 1) (390 nm, 8 cps vs Dark): 137.49% | % Permeation (percent increase or decrease vs dark baseline, equation 1) (390 nm, 24 cps vs Dark): 130.27% | % Permeation (percent increase or decrease vs dark baseline, equation 1) (390 nm, 80 cps vs Dark): −20.96% | % Permeation (percent increase or decrease vs dark baseline, equation 1) (405 + TiO2, 8 cps vs Dark-TiO2): 118.04% | % Permeation (percent increase or decrease vs dark baseline, equation 1) (405 + TiO2, 24 cps vs Dark-TiO2): 89.79% | % Permeation (percent increase or decrease vs dark baseline, equation 1) (405 + TiO2, 80 cps vs Dark-TiO2): 25.72% | Permeation (405 + TiO2, pulse rate 8 cps): 15.59 μg/cm^2/24 hrs | Permeation (405 + TiO2, pulse rate 24 cps): 79.92 μg/cm^2/24 hrs | Permeation (405 + TiO2, pulse rate 80 cps): 49.08 μg/cm^2/24 hrs | Permeation (405 nm LED, pulse rate 8 cps): 29.27 μg/cm^2/24 hrs | Permeation (405 nm LED, pulse rate 24 cps): 79.31 μg/cm^2/24 hrs | Permeation (405 nm LED, pulse rate 80 cps): 19.79 μg/cm^2/24 hrs | % Permeation (percent increase or decrease vs dark baseline, equation 1) (405 nm, 8 cps vs Dark): 203.95% | % Permeation (percent increase or decrease vs dark baseline, equation 1) (405 nm, 24 cps vs Dark): 115.69% | % Permeation (percent increase or decrease vs dark baseline, equation 1) (405 nm, 80 cps vs Dark): −57.19% | % Permeation (percent increase or decrease vs dark baseline, equation 1) (450 + TiO2, 8 cps vs Dark-TiO2): 221.12% | % Permeation (percent increase or decrease vs dark baseline, equation 1) (450 + TiO2, 24 cps vs Dark-TiO2): 62.76% | % Permeation (percent increase or decrease vs dark baseline, equation 1) (450 + TiO2, 80 cps vs Dark-TiO2): −31.33% | Permeation (450 + TiO2, pulse rate 8 cps): 22.96 μg/cm^2/24 hrs | Permeation (450 + TiO2, pulse rate 24 cps): 68.54 μg/cm^2/24 hrs | Permeation (450 + TiO2, pulse rate 80 cps): 26.81 μg/cm^2/24 hrs | Permeation (450 nm LED, pulse rate 8 cps): 21.55 μg/cm^2/24 hrs | Permeation (450 nm LED, pulse rate 24 cps): 73.22 μg/cm^2/24 hrs | Permeation (450 nm LED, pulse rate 80 cps): 26.12 μg/cm^2/24 hrs | % Permeation (percent increase or decrease vs dark baseline, equation 1) (450 nm, 8 cps vs Dark): 123.78% | % Permeation (percent increase or decrease vs dark baseline, equation 1) (450 nm, 24 cps vs Dark): 99.13% | % Permeation (percent increase or decrease vs dark baseline, equation 1) (450 nm, 80 cps vs Dark): −43.50% | Permeation Dark (Dark control, ambient light absent): 1.12 μg/0.64 cm^2/25 hrs | Permeation (Dark control, 8 cps series): 9.63 μg/cm^2/24 hrs | Permeation (Dark control, 24 cps series): 36.77 μg/cm^2/24 hrs | Permeation (Dark control, 80 cps series): 46.23 μg/cm^2/24 hrs | Permeation (Dark-TiO2 control (2% TiO2), 8 cps series): 7.15 μg/cm^2/24 hrs | Permeation (Dark-TiO2 control (2% TiO2), 24 cps series): 42.11 μg/cm^2/24 hrs | Permeation (Dark-TiO2 control (2% TiO2), 80 cps series): 39.04 μg/cm^2/24 hrs | Permeation (Day (natural daylight, not pulsed), control of the 8 cps series): 15.56 μg/cm^2/24 hrs | Permeation (Day (natural daylight, not pulsed), control of the 24 cps series): 52.93 μg/cm^2/24 hrs | Permeation (Day (natural daylight, not pulsed), control of the 80 cps series): 56.11 μg/cm^2/24 hrs | % Permeation (percent increase or decrease vs dark baseline, equation 1) (Day vs Dark, 8 cps series): 61.58% | % Permeation (percent increase or decrease vs dark baseline, equation 1) (Day vs Dark, 24 cps series): 43.95% | % Permeation (percent increase or decrease vs dark baseline, equation 1) (Day vs Dark, 80 cps series): 21.37% | Permeation (Day-TiO2 (natural daylight, 2% TiO2, not pulsed), control of the 8 cps series): 8.61 μg/cm^2/24 hrs | Permeation (Day-TiO2 (natural daylight, 2% TiO2, not pulsed), control of the 24 cps series): 55.83 μg/cm^2/24 hrs | Permeation (Day-TiO2 (natural daylight, 2% TiO2, not pulsed), control of the 80 cps series): 49.95 μg/cm^2/24 hrs | % Permeation (percent increase or decrease vs dark baseline, equation 1) (Day-TiO2 vs Dark-TiO2, 8 cps series): 20.42% | % Permeation (percent increase or decrease vs dark baseline, equation 1) (Day-TiO2 vs Dark-TiO2, 24 cps series): 32.58% | % Permeation (percent increase or decrease vs dark baseline, equation 1) (Day-TiO2 vs Dark-TiO2, 80 cps series): 27.95% | Permeation Ctrl (ambient cool fluorescent light only, 260-750 nm, 120 cps): 3.55 μg/0.64 cm^2/25 hrs | Permeation Ctrl-TiO2 (ambient fluorescent light, sample with 2% (w/w) rutile TiO2): 0.00 μg/0.64 cm^2/25 hrs

Source: patent US7854753B2, “Photokinetic delivery of biologically active substances using pulsed incoherent light” (Photokinetix, Inc., priority 2002, dated 2010)
